This passage reports Emax results from patent publication EP3498273A1, “PHARMACEUTICAL COMPOSITION FOR MODULATING THE RESPONSE OF A GABA-A RECEPTOR” (Universität Wien, priority 2017, dated 2019).

Sequences of proteins named here, by UniProt entry; tags and fusion partners are left off. A change or cut given only in a name is not applied to a line headed by its entry.
UniProt P14867: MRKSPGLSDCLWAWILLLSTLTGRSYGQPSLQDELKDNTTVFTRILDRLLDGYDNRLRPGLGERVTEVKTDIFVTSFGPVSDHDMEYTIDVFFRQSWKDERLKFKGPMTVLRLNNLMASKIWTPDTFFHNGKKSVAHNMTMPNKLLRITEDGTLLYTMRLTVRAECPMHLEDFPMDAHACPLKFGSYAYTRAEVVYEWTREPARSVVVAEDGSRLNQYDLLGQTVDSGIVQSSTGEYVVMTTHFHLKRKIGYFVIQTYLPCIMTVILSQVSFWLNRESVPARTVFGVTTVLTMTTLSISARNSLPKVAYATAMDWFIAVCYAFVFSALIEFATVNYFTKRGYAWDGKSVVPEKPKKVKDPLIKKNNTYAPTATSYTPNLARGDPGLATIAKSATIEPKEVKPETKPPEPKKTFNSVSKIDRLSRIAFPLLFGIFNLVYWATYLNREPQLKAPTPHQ
UniProt P28472: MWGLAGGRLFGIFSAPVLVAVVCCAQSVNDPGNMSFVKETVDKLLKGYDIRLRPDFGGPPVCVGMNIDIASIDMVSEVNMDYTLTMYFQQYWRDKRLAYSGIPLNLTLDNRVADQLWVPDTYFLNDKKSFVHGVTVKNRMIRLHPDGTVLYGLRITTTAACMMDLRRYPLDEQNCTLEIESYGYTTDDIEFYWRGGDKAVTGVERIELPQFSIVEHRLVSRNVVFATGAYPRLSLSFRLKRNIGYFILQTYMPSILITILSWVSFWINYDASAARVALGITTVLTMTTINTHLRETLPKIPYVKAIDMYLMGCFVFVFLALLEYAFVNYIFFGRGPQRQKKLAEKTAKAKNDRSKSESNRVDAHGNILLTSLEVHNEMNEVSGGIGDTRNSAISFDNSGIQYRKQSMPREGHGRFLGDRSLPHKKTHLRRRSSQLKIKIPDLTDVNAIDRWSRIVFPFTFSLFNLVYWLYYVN

The structures appear in SMILES notation.

This assay has as its target GABAA receptors composed of α1β3γ2S subunits (Homo sapiens, UniProt P14867+P28472). The experiment in a line: Two-microelectrode voltage clamp: enhancement of GABA-induced chloride currents (IGABA) through receptors expressed in Xenopus laevis oocytes. To be noted: Table 6, α1β3γ2s; maximal IGABA enhancement; unit not given.

For `CC(=C(C#N)C#N)c1ccc(Cl)cc1Cl`, the Emax amounted to 1931 ± 324.
